Tests used:
MDAMB468 [1] = assay: Apoptosis assay (Annexin V/PI)
Protocol: (§1) Cell lines were plated in duplicate in 25 mm tissue culture dishes or in 6-well tissue culture plates and treated 24 hours later with the indicated concentrations of PF-05175157, Docetaxel (10 nM, as a positive control) or with a DMSO control. At 24- and 72-hours post-treatment, cells were harvested and stained with Annexin V-FITC according to the manufacturer's instructions (ANNEX300F, BioRad). Immediately prior to analysis by flow cytometry, Propidium Iodide (1 μg/mL) was added to the cells and assayed for apoptosis on an LSR Fortessa Cytometer (BD Biosciences). Analysis was carried out using FlowJo software (BD Biosciences). Annexin V single positive and Annexin V/PI double positive cells were considered apoptotic.

BT474 [2] = assay: Apoptosis assay (Annexin V/PI); settings: BT474, 72 hours
Protocol: as §1

MDAMB468 xenograft = assay: Mouse cell line-derived xenograft (CDX) model
[3] = test system: HC1500 human estrogen receptor positive breast cancer cell line xenografts; assay: Mouse cell line-derived xenograft (CDX) model; settings: HC 1500 xenograft, 320 mg/kg intraperitoneally daily x 5 days followed by 2 days off
KASUMI-1 = assay: High throughput in vitro cell line screen; settings: KASUMI-1, AML
Protocol: (§2) A high throughput in vitro cell line screen including over 500 human cancer cell lines was performed to assess singe agent PF-05175157 activity beyond breast cancer cells. Cell lines with calculated IC50 less than 10 μM (~4 μg/mL) are provided herein. The results are consistent with reports in the literature that ACC inhibition impairs cell viability in a broad range of cancers.

T-47D = assay: High throughput in vitro cell line screen; settings: Breast
Protocol: as §2

lipid synthesis = settings: Phase I/II clinical trials; cited from earlier work
[4] = test system: J000102184 patient derived xenograft model of triple negative breast cancer; assay: Mouse patient-derived xenograft (PDX) model; settings: for tumor growth compared to control: TNBC PDX J000102184, 20 mg/kg oral gavage BID
Protocol: The PDX experiments were performed by the In Vivo Services at The Jackson Laboratory Sacramento facility, according to an IACUC-approved protocol and in compliance with the Guide for the Care and Use of Laboratory Animals (National Research Council, 2011). The J000102184 patient derived xenograft model of triple negative breast cancer was tested in female NSG mice, NOD.Cg-Prkdc^scidIl2rg^tm1Wjl/SzJ (NSGTM: JAX 005557). Mice were housed in individually ventilated polysulfone cages with HEPA filtered air at a density of up to 5 mice per cage. The animal room was lighted entirely with artificial fluorescent lighting, with a controlled 12 h light/dark cycle (6 am to 6 pm light). The normal temperature and relative humidity ranges in the animal rooms were 22-26° C. and 30-70%, respectively. The animal rooms were set to have up to 15 air exchanges per hour. Filtered tap water, acidified to a pH of 2.5 to 3.0, and standard rodent chow was provided ad libitum. J000102184 tumor cells were injected into 7-week-old NSGTM mice at a volume of 40ul per mouse. Mice were enrolled when tumor volume reached between 100 to 200 mm^3. Body weights, clinical observations and digital caliper measurements were recorded two times weekly post enrollment. Animals that reached a body condition score of ≤2, a body weight loss of ≥20%, ulcerated tumors, or a tumor volume >2000 mm^3 were to be euthanized before study terminus.
On study day 0, dosing of mice began with PF-05175157. Group 1 was dosed with the vehicle comprised of 0.5% methycellulose in water. Group 2 was dosed with the 20 mg/kg of PF-05175157. Both groups were dosed twice daily by oral gavage for 4 weeks. On study day 43, tumor volumes were measured, and all animals were euthanized via CO2 asphyxiation. At take-down, tumors from all mice were harvested for FFPE.
Both, CDX and PDX data were analyzed with mixed effect models using lme4 R package. There were two fixed effects in the model: day of study and type of drug used (Vehicle or PF-05175157), and a random effect allowing for random intercept for each animal to include individual variability in tumor volume. The interaction term between two fixed effects was added to model the effects of drug on the rate of tumor growth.

[5] = test system: MCF7 and its fulvestrant resistant subclone (MCF7/FR); assay: In vitro combination with fulvestrant or TBV-3166
[6] = test system: normal breast epithelial (HMEC) cells; assay: In vitro cell viability assay (CellTitre-Glo); settings: HMEC normal mammary epithelial cells
BT549 = assay: In vitro cell viability assay (CellTitre-Glo); settings: BT549, 72 h exposure
T47D = assay: In vitro cell viability assay (CellTitre-Glo); settings: 72 h exposure
[7] = test system: MCF7/FR (fulvestrant resistant subclone); assay: In vitro single agent efficacy
MCF7 = assay: In vitro single agent efficacy; settings: parental MCF7
MDAMB468 [8] = assay: Cell cycle analysis; settings: MDAMB468, 24 and 72 hours
Protocol: (§3) Cell lines were plated in duplicate in 25 mm tissue culture dishes or in 6-well plates and treated 24 hours later with the indicated concentrations of PF-05175157. Docetaxel (10 nM, as a positive control) or with a DMSO control. At 24- and 72-hours post-treatment, cells were harvested and fixed overnight in 70% ethanol. Cells were then washed in PBS, stained with 50 μg/ml Propidium Iodide (Abcam) containing 550 U/mL RNase A, and assayed for DNA content on an LSR Fortessa Cytometer (BD Biosciences). Analysis was carried out using FlowJo software (BD Biosciences).

BT474 [9] = assay: Cell cycle analysis; settings: BT474, 24 and 72 hours
Protocol: as §3

In the case of `Cc1nc2ccc(C(=O)N3CCC4(CC3)CC(=O)c3c(cnn3C(C)C)C4)cc2[nH]1`, the apoptosis (MDAMB468 [1]; MDAMB468, 72 hours) is reported as “significant increase in apoptosis”, the “percentage of apoptotic cells upon treatment” value (MDAMB468 [1]; MDMBA468, 72 hours, 10 μg/mL, from 7.7% without treatment) is reported as 17.8% and the apoptosis (BT474 [2]) is reported as “significant increase in apoptosis”. For the same compound, the “percentage of apoptotic cells upon treatment” value (BT474 [2]; 10 μg/mL, from 4% without treatment) was 8%, the “single agent growth inhibition” value (MDAMB468 xenograft; MDA-MB-468 xenografts, 80 mg/kg and 320 mg/kg intraperitoneally once daily) was “dose dependent single agent growth inhibition” and the “effect on efficacy of low dose doxorubicin (combination)” value (MDAMB468 xenograft; MDA-MB-468 xenografts, intraperitoneal PF-05175157 with doxorubicin) was “increased the efficacy”. The “effect on efficacy of low dose vinorelbine (combination)” value (MDAMB468 xenograft; MDA-MB-468 xenografts, intraperitoneal PF-05175157 with vinorelbine) was “increased the efficacy”, the “tumor growth compared to control” value (MDAMB468 xenograft; MDAMB468 xenograft, intraperitoneally 20 mg/kg in DMSO) was “suppressed tumor growth” and the “median tumor volume after 40 days” value (MDAMB468 xenograft; MDAMB468 xenograft, intraperitoneally 20 mg/kg in DMSO, 303.3 mm^3 in DMSO-treated mice) was 244.5 mm^3. The “tumor growth compared to control” value (MDAMB468 xenograft; MDAMB468 xenograft, intraperitoneally 20 mg/kg in DMSO, listed as PF05175157) was “significantly delayed tumor growth”, the “single agent growth inhibition” value [3] was “Significant single agent growth inhibition” and the IC50 (KASUMI-1) was 0.0032 µM. For the same compound, the IC50 (T-47D) was 6.82 µM, the “effect on lipid synthesis in patients” value (lipid synthesis) was “significant inhibitory effect on lipid synthesis” and the “tumor growth compared to control” value [4] was “suppressed tumor growth”. The “tumor growth compared to control” value ([4]; listed as PF05175157) was “significantly delayed tumor growth”, the “median tumor volume after 33 days” value ([4]; TNBC PDX, 20 mg/kg gavage BID, 490.5 mm^3 in methylcellulose-treated mice) was 334.1 mm^3 and the growth inhibition ([4]; TNBC PDX, 20 mg/kg oral gavage twice daily, vs methylcellulose controls) was 30%. The “additive effect or synergy in combination with TBV-3166” value [5] was “An additive effect or synergy was not definitively observed”, the “additive effect or synergy in combination with fulvestrant” value [5] was “An additive effect or synergy was not definitively observed” and the “inhibitory effect on HMEC cells” value [6] was “no significant inhibitory effect”. For the same compound, the “estimated EC50, cell viability” value (BT549) was 66.9 µg/mL, the “estimated EC50, cell viability” value (BT549; listed as PF05175157) was 76 µg/mL and the “estimated EC50, cell viability” value (T47D) was 0.96 µg/mL. The “estimated EC50, cell viability” value (T47D; listed as PF05175157) was 0.95 µg/mL, the “single agent inhibitory effect” value [7] was “significant single agent inhibitory effect” and the “single agent inhibitory effect” value (MCF7) was “significant single agent inhibitory effect”. For the same compound, the “cells at G2/M phase” value (MDAMB468 [8]) was “time dependent increase in cells at G2/M phase”, the “cells at G2/M phase” value (MDAMB468 [8]; listed as PF05175157) was “trend towards G2/M cell cycle arrest” and the “cells at G2/M phase” value (BT474 [9]) was “time dependent increase in cells at G2/M phase”. For the same compound, the “cells at G2/M phase” value (BT474 [9]; listed as PF05175157) was “trend towards G2/M cell cycle arrest”.

From patent publication US20260240823A1
